Data: paper PMC12302720 (2025)
One block for each binder: values may come before it.

How the values were obtained:
Assay in all cases: ELISA
[1] = target: T1, extracellular domain of cynomolgus CD47 (CyCD47 ECD) (cynomolgus)
T1 chain: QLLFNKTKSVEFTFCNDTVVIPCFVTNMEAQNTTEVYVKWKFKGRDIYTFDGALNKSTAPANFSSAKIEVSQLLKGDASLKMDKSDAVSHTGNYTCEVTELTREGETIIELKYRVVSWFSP

[2] = target: T2, extracellular domain of human CD47 (HuCD47 ECD) (human, UniProt Q08722 19-139)
[3] = target: T2, extracellular domain of human CD47 …; remark: listed apart in the source

- EC50 [1]: 0.24 mg/L
- EC50 [2]: 0.37 mg/L
- IC50 [3]: 2.34 mg/L
B1: Hu1C8, humanized anti-CD47 monoclonal antibody (antibody, V domains shown)
VH: QSVKESGGGLFQPGGSLRLSCSVSGFSLSSYAISWVRQAPGKGLEYIGYISSIGDPYYADWVKGRFTISRDSSTVYLQMTSLRAEDTAVYFCARSYPGNGDLGRLDIWGQGTTVTVSS
VL: DPMLTQSPSFLSASVGDRVTITCQSSQSVYRNKYLSWYQQKPGKAPKLLIYYASTLASGVPSRFSGSGSGTEFTLTISSLQPEDFATYYCAGDYSDDIENAFGGGTKVEIK

- EC50 [1]: 0.31 mg/L
- EC50 [2]: 0.39 mg/L
- IC50 [3]: 2.26 mg/L
B2: 1C8, rabbit-derived anti-CD47 monoclonal antibody (rabbit variable regions on human IgG4PE and Igκ) (antibody, V domains shown)
VH: QSVKESEGGLFKPTDTLTLTCTVSGFSLSSYAISWVRQAPGKGLEYIGYISSIGDPYYASWVNGRFTISRTSSTVTLKMTSLTAADTATYFCARSYPGNGDLGRLDIWGQGTLVTVSS
VL: DPMLTQTPSPVSAAVGGTVSISCQSSQSVYRNKYLSWYQQKPGQPPKLLIYYASTLASGVPSRFKGSGSGTQFTLTISDVQCDDAATYYCAGDYSDDIENAFGGGTEVVVK
